Results reported in publication PMC6207724, “Mechanism of activating mutations and allosteric drug inhibition of the phosphatase SHP2” (Nature Communications, 2018).

Assays:
FL-E76D SHP2 [1] = target: T1, FL-E76D SHP2 (Homo sapiens, UniProt Q06124, E76D); conditions: predominantly closed conformation
FL-C459E SHP2 = FL-C459E SHP2 (Homo sapiens, UniProt Q06124, C459E); conditions: predominantly closed conformation
FL-C459S SHP2 = FL-C459S SHP2 (Homo sapiens, UniProt Q06124, C459S); conditions: predominantly open conformation
FL-E76D SHP2 [2] = target: T1, FL-E76D SHP2; conditions: kobs at 500 μM substrate
FL-E76K SHP2 = FL-E76K SHP2 (Homo sapiens, UniProt Q06124, E76K); conditions: kobs at 500 μM substrate

## CC1(N)CCN(c2cnc(-c3cccc(Cl)c3Cl)c(N)n2)CC1 [SHP099]
FL-E76D SHP2 [1]
  SHP099 affinity (ITC), in words: tight affinities
FL-C459E SHP2
  SHP099 affinity (ITC), in words: tight affinities
FL-C459S SHP2
  SHP099 affinity (ITC), in words: much weaker affinities
FL-E76D SHP2 [2]
  SHP099 concentration needed to restore WT activity levels: ~4.1 µM
FL-E76K SHP2
  SHP099 concentration needed to restore WT activity levels: > 180 µM
